## Apparent affinities of Ab-91 variants for a coronavirus HR2 peptide

Source: Engelhart et al. 2022 (doi:10.1038/s41597-022-01779-4), MIT Lincoln Laboratory and A-Alpha Bio; data file from the FLAb repository.

Binding partner: SARS-CoV-2 spike HR2 peptide, sequence PDVDLGDISGINAS.

Ab-91 is the parent antibody, in scFv form: VL, then a 15-residue (Gly4Ser)3 linker, then VH. The light chain is unchanged in all variants.
VL: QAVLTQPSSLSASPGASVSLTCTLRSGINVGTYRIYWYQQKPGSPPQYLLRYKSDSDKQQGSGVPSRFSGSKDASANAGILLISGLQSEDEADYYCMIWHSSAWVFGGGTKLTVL
VH: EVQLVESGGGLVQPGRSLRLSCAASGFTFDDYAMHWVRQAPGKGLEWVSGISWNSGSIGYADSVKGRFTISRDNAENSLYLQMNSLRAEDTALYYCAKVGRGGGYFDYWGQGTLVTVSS

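The starting antibody came from a phage panning campaign against this peptide. Library AAYL51 holds single substitutions and randomly drawn double and triple substitutions in the CDRs. AlphaSeq pools MATa yeast showing the antibodies with MATalpha yeast showing the peptide. Mating (16 h, 30 °C) was followed by selection of diploids and sequencing of their barcodes. A regression on co-assayed BCL2-family reference pairs converts the normalised counts of each replicate to an apparent Kd. There are three technical replicates.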

The parent's heavy chain CDRs are GFTFDDYAMH, GISWNSGSIGYADSVK, VGRGGGYFDY; each variant's own CDRs replace them letter for letter.
Values are log10 of the apparent Kd in nM; lower means stronger binding.
The mean shown is taken over the replicates in which the pair was detected.
A pair that was not seen in any replicate is written "nd"; this usually means weak binding, but a binder can also be missed.
In this assay the parent's reference entry averaged 1.86; its copy inside this library read 0.88.
As a blank, each scFv also met three strains without target: over library AAYL51, 21% of these pairings were detected, typically at 4.54 and seldom below 3.26. For each scFv, signals with the empty controls are counted beside the result.

With GFTFDCYAMH / GISWNSGSIGYADSVK / VGRGGTYFDN the result was 3.38 (2 of 3 replicates; controls 2 of 9).
With GFTAEDYAMH / GISWNSGSIGYADSVK / VGTGGGYFDY the result was nd (0 of 3 replicates; controls 0 of 9).
With GFTFDDYAMH / GISWNSGIIGYHDSVK / VGRGGGYFDS the result was nd (0 of 3 replicates; controls 0 of 9).
With GFTRDDYAMH / GISWNSGSIGYADSVD / VGRQGGYFDY the result was 5.30 (2 of 3 replicates; controls 2 of 9).
With GFTFDDYAMH / GISWNSGSIAYADDVK / VGRGGGRFDY the result was nd (0 of 3 replicates; controls 1 of 9).
With GFTFDDYAMH / GKSWNSGSIGYADSVK / VGRGGHYNDY the result was nd (0 of 3 replicates; controls 0 of 9).
With QFTFDDYAMH / GISWNSGSIGYADSVK / VMRGGGYFDY the result was 3.73 (2 of 3 replicates; controls 4 of 9).
With GFTFDDYAMH / GISLCSGSIGDADSVK / VGRGGGYFDY the result was nd (0 of 3 replicates; controls 1 of 9).
With MFTFDDYAMH / GISWNSGSIGYADSRK / VGRGDGYFDY the result was nd (0 of 3 replicates; controls 1 of 9).
With GYTFDDYAMH / GISWNSGIIGYAQSVK / VGRGGGYFDY the result was nd (0 of 3 replicates; controls 2 of 9).
With GFTFDDYAYY / GISWNMGSIGYADSVK / VGRGGGYFDY the result was nd (0 of 3 replicates; controls 0 of 9).
With GFTFDDYAMH / WISWYSGSIGYADSVK / VGRGGGYKDY the result was 4.98 (2 of 3 replicates; controls 5 of 9).
With GWYFDDYAMH / GISWNSGSICYADSVK / VGRGGGYFDY the result was nd (0 of 3 replicates; controls 1 of 9).
With GFTFDPYAMH / GISWNSGSIGYADSVK / VGRGEGYIDY the result was 4.60 (1 of 3 replicates; controls 3 of 9).
With GFTFDDYAMD / DISWNSGSIGYADSVK / VGRSGGYFDY the result was nd (0 of 3 replicates; controls 0 of 9).
With GFTFDDGAMH / GISWNSGSIGYDDSVK / VGRGGGYFAY the result was nd (0 of 3 replicates; controls 2 of 9).
With GFTFDQYAMH / SISWNSGSICYADSVK / VGRGGGYFDY the result was nd (0 of 3 replicates; controls 1 of 9).
With GFTDDDYAMH / GGSWNSNSIGYADSVK / VGRGGGYFDY the result was 4.98 (2 of 3 replicates; controls 3 of 9).
With GFTFDDYAMH / GISWNSGSWGYADSYK / VGRGGGWFDY the result was 6.14 (1 of 3 replicates; controls 6 of 9).
With GFTFDSYAMH / GISWNSGSIGWADSVK / KGRGGGYFDY the result was 3.43 (1 of 3 replicates; controls 1 of 9).
With GFTFDDGAMH / GISWNSGSIGYADSVK / VHRGGGYFDY the result was 5.21 (1 of 3 replicates; controls 1 of 9).
With KFTFDDHAMH / GISWNSGSIGYADSKK / VGRGGGYFDY the result was 5.17 (1 of 3 replicates; controls 1 of 9).
With GFTFDDYFMH / GISWNVGSIGYADSVK / VNRGGGYFDY the result was 4.76 (3 of 3 replicates; controls 3 of 9).
With GFTFDNYAMH / GISQNSGSIGYADSVW / VGRGGGYFDY the result was 1.27 (3 of 3 replicates; controls 2 of 9).
With GFTFDDYAMH / GIWWKSGSIGYADSVK / VDRGGGYFDY the result was nd (0 of 3 replicates; controls 0 of 9).
With GFYFYSYAMH / GISWNSGSIGYADSVK / VGRGGGYFDY the result was nd (0 of 3 replicates; controls 0 of 9).
With GFTFDDSAMH / GIMWNSGSIGYADSVK / VGRGGGYADY the result was nd (0 of 3 replicates; controls 0 of 9).
With GFTHDDYAMH / GISWNSGSIGYADSVK / VNRGGGRFDY the result was 1.83 (3 of 3 replicates; controls 1 of 9).
With SFTFDDYAGH / GISWNSGSIGYADSVK / VGRGTGYFDY the result was nd (0 of 3 replicates; controls 0 of 9).
With GFTFDDYAMH / GISWNSGSIGYADSVE / VGRIGGYTDY the result was 0.87 (3 of 3 replicates; controls 1 of 9).
With GFTFDDYAMH / GISWNSGSIGYADSAK / VGDGGGFFDY the result was nd (0 of 3 replicates; controls 0 of 9).
With EFTFDDFAMH / GISWNSGSIGYADSVK / VGRGGGYFDI the result was 4.73 (3 of 3 replicates; controls 5 of 9).
With GFIFDDYAMH / GVSWNSGSIGYADSVK / VPRGGGYFDY the result was 4.34 (1 of 3 replicates; controls 2 of 9).
With GFTFDDYAMG / IISWNSGSIGYAMSVK / VGRGGGYFDY the result was nd (0 of 3 replicates; controls 3 of 9).

Top 4 of the variants detected in all replicates, tightest first:

With GFTFDDYAMH / GISWNSGSIGYADSVE / VGRIGGYTDY the result was 0.87 (3 of 3 replicates; controls 1 of 9).
With GFTFDNYAMH / GISQNSGSIGYADSVW / VGRGGGYFDY the result was 1.27 (3 of 3 replicates; controls 2 of 9).
With GFTHDDYAMH / GISWNSGSIGYADSVK / VNRGGGRFDY the result was 1.83 (3 of 3 replicates; controls 1 of 9).
With EFTFDDFAMH / GISWNSGSIGYADSVK / VGRGGGYFDI the result was 4.73 (3 of 3 replicates; controls 5 of 9).